Antibody variant affinities, Ab-91 heavy chain, assay 2

Target: peptide PDVDLGDISGINAS, taken from heptad repeat 2 (HR2) of SARS-CoV-2 spike.

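The starting antibody came from a phage panning campaign against this peptide. In library AAYL51, one, two or three CDR residues were substituted; doubles and triples were drawn at random. Affinity was read by AlphaSeq, a pooled yeast mating assay with surface-displayed partners. The frequency of each diploid, read from paired DNA barcodes, reflects how well the two displayed proteins bind. Read counts were normalised to the haploid input and turned into Kd by a linear fit to BCL2-family pairs of known affinity, for each replicate. The assay was run in three technical replicates.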

Parent: Ab-91, a human scFv built as VL, a 15-residue (Gly4Ser)3 linker, VH. Only the CDRs of the heavy chain vary.
VL: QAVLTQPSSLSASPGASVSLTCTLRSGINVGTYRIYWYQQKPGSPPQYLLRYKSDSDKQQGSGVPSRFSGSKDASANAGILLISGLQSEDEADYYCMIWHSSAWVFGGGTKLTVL
VH: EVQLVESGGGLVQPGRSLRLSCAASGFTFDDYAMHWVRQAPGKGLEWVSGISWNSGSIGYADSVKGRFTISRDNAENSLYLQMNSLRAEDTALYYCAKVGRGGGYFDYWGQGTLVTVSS

Substitutions are numbered in sequence along the VH above, starting at 1 (not Kabat). The read-out is the apparent dissociation constant on a log10 scale (nM): the lower, the stronger. "ND" means that the variant was in the library but no mating with the target was seen in that replicate; the authors take this as a sign of poor binding, and no number exists. Three control strains display no target. For library AAYL51, 21% of the pairings with them gave a signal, with a median of 4.54 and one signal in twenty below 3.26, so weak values seen in few replicates may be background. Also given: how often the same scFv was detected with the empty control strains, with their mean in brackets. For reference, the parent read 1.86 as the reference entry and 0.88 as a member of this library.

changes	log10 Kd, replicates	empty controls
D30Q Y60I D107I	1.65 3.34 2.62	1/9 (3.54)
A33H G50Q N54Q	ND ND ND	0/9
F29T D31H W53H	2.58 1.52 1.59	0/9
A33I N54D Y108A	ND ND ND	0/9
D31E G100P Y108A	4.43 ND ND	5/9 (4.79)
D31I S52H G102E	ND 4.60 5.32	3/9 (5.44)
A61W V99M	ND 5.93 4.56	3/9 (4.53)
H35Q W53Y	5.56 4.57 ND	2/9 (4.25)
N54G R101P Y108E	2.50 2.51 2.64	5/9 (4.65)
V64Q G104I Y108T	4.00 ND ND	1/9 (3.94)
D31T D62A F106N	ND ND ND	2/9 (4.15)
D31P Y60G R101V	4.81 ND ND	4/9 (4.55)
D31Q N54T I58G	3.91 ND ND	2/9 (4.84)
A33T S52V S55P	4.93 ND ND	1/9 (3.70)
V64C G100R D107A	ND 5.73 ND	3/9 (5.12)
D30Q N54W Y60L	ND ND ND	0/9
F29I D31Y G102R	4.09 ND ND	0/9
W53Q S57A G104P	ND ND ND	0/9
D30M Y32W V99E	2.97 4.52 ND	0/9

Further variants, results first:

log10 Kd, replicates	empty controls	changes
ND ND ND	2/9 (4.75)	T28Y V99E G100F
ND ND ND	1/9 (3.05)	Y60P G102E G104T
4.70 ND ND	0/9	G26C D62Q
1.62 1.66 0.97	2/9 (4.96)	G103V F106V Y108F
ND ND ND	0/9	Y32E G50I G102F
ND ND 3.51	1/9 (3.12)	G59N F106L Y108E
ND ND ND	0/9	I51M A61Y D107Q
ND ND ND	0/9	D31N W53C D107C
ND 3.67 ND	0/9	D30P A33K D62P
5.84 3.44 3.30	0/9	D62C F106L
1.12 0.94 0.50	0/9	G56C I58T
3.85 3.60 2.77	5/9 (4.61)	F29V G56Y S63M
2.84 2.75 2.62	2/9 (3.84)	G56F G104N F106H
ND ND ND	0/9	G59H K65W D107N
ND ND ND	2/9 (3.88)	S52K S55D V64H
ND ND ND	0/9	V64I G104E F106I
ND ND ND	1/9 (5.58)	V64Q R101M
4.45 ND ND	3/9 (4.60)	D31T S52V W53F
3.73 ND ND	0/9	T28L A33N G100Q
ND ND ND	1/9 (3.64)	D30Y N54P G103E

Source: Engelhart et al. 2022 (doi:10.1038/s41597-022-01779-4), MIT Lincoln Laboratory and A-Alpha Bio; data file from the FLAb repository.